We go through one compound from ChEMBL document CHEMBL4325826, “Identification of a Selective, Non-Prostanoid EP2 Receptor Agonist for the Treatment of Glaucoma: Omidenepag and its Prodrug Omidenepag Isopropyl” (J Med Chem, 2018).

Protein sequences, listed by entry. Tags and fused reporters are not part of them. Lines headed by an entry give the natural chain unless they say otherwise; changes in a name come on top.
UniProt P43116: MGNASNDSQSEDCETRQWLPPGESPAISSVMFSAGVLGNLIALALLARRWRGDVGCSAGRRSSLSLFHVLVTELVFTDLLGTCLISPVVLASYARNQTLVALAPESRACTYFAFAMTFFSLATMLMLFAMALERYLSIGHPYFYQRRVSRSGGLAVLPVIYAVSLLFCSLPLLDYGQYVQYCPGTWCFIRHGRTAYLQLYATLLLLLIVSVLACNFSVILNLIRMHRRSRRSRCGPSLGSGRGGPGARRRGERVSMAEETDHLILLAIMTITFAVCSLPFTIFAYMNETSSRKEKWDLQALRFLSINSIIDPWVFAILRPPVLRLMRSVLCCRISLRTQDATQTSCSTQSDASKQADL

Structures are written as SMILES.

Broadly, the IC50 is the point on the concentration scale where inhibition reaches its midpoint. Read a high IC50 as weaker potency.

This assay deals with Prostaglandin E2 receptor EP2 subtype (Homo sapiens, UniProt P43116). Put plainly: Displacement of [3H]prostaglandin E2 from human EP2 receptor expressed in HEK293 cell membranes after 60 mins by liquid scintillation counting. A general note: In a radioligand displacement assay an active substance lowers the binding of a labelled ligand.

In the case of `CCCCC[C@H](O)/C=C/[C@H]1[C@H](O)CC(=O)[C@@H]1C/C=C\CCCC(=O)O` [DINOPROSTONE], the IC50 is 4 nM.
